scFv variants of Ab-14 (heavy chain) against a SARS-CoV-2 spike peptide

From the AlphaSeq antibody data of Engelhart et al. 2022 (doi:10.1038/s41597-022-01779-4), copy in the FLAb collection.

Target: peptide PDVDLGDISGINAS, taken from heptad repeat 2 (HR2) of SARS-CoV-2 spike.

Parent scFv Ab-14: VH joined to VL by a (GGGGS)3 linker. Changes lie in the heavy chain CDRs alone.
VH: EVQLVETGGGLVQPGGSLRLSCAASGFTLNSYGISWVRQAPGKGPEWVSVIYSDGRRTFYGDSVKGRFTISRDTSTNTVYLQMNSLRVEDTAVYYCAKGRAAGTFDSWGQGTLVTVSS
VL: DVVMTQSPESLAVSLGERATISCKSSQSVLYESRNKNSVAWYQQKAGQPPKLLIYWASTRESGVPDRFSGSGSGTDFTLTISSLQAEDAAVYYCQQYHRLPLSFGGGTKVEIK

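The library (AAYL49) carries one to three amino acid substitutions per variant, with no insertions or deletions. The scFvs were displayed on barcoded MATa yeast, the peptide on MATalpha yeast. After mating in shaken culture at 30 °C for 16 h, diploids were selected and their barcode pairs sequenced. Read counts were normalised to the haploid input and turned into Kd by a linear fit to BCL2-family pairs of known affinity, for each replicate. The assay was run in three technical replicates.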

Positions count from residue 1 of the parent VH; G33F puts F in place of G.
Every variant below is changed at I51 of the VH (sequential numbering).
Values are log10 of the apparent Kd in nM; lower means stronger binding.
"nd" marks a missing value. The strain was present, yet no cells mated with the target were sequenced in that replicate, which points to weak or no binding.
In this assay the parent's reference entry averaged 0.65; its copy inside this library read 4.11 (one replicate of three).
As a blank, each scFv also met three strains without target: over library AAYL49, 15% of these pairings were detected, typically at 4.06 and seldom below 2.83. Also given: how often the same scFv was detected with the empty control strains.

With G33F/I51V the result was nd, nd, nd (controls 1 of 9). The variant I51Y/G61V/S107L gave nd, nd, nd (controls 0 of 9). The variant S31V/I51C/S53Y gave nd, 4.82, 4.73 (controls 2 of 9). For I51N/G55D/Y60M, the assay gave nd, nd, nd (controls 1 of 9). With I51W/S53N/D62E the result was nd, nd, 4.47 (controls 2 of 9).

With I51T/S53A/G99W the result was 1.38, 2.64, 2.35 (controls 0 of 9). The variant L29H/I51R/G103V showed nd, 3.75, 5.12 (controls 3 of 9). With I51F/S63G/A101Q the result was nd, nd, nd (controls 0 of 9). The variant I51W/G61N/D62Y gave nd, nd, nd (controls 1 of 9). With I51M/G103D the result was nd, nd, nd (controls 0 of 9).

The variant I34K/V50D/I51V gave 6.00, nd, nd (controls 0 of 9). With Y32C/I51F/D62W the result was nd, nd, nd (controls 1 of 9). With I51Y/G55N the result was nd, nd, nd (controls 1 of 9). With T28P/I51R/F59C the result was nd, nd, nd (controls 1 of 9). The variant I51N/Y60V/D62P showed 4.09, nd, nd (controls 3 of 9).

The variant I51Y/S53A/A102H gave 4.09, 5.01, 6.62 (controls 5 of 9). With S31W/I51K/D106A the result was nd, nd, nd (controls 0 of 9). The variant F27D/I51S/R100M gave 2.81, nd, nd (controls 0 of 9). The variant I51G/G55P/V64C showed nd, nd, nd (controls 1 of 9). With F27M/N30K/I51Y the result was 5.76, nd, 3.76 (controls 3 of 9).

The variant G26T/I51T/S107H showed nd, nd, nd (controls 0 of 9). The variant I51P/G55M/T104I gave nd, 5.17, 4.19 (controls 4 of 9).

Again, the first 3 entries without any signal:

{"changes": "G33F/I51V", "replicates, log10 nM": "nd, nd, nd", "signal with controls": "1 of 9"}
{"changes": "I51Y/G61V/S107L", "replicates, log10 nM": "nd, nd, nd", "signal with controls": "0 of 9"}
{"changes": "I51N/G55D/Y60M", "replicates, log10 nM": "nd, nd, nd", "signal with controls": "1 of 9"}